# Assay results from US5047413A (priority 1987, dated 1991).
# Key:
# [1] = test system: guinea pig urinary bladder muscle; assay: neurotropic/spasmolytic effect on isolated guinea pig urinary bladder muscle (carbachol-induced contraction); conditions: carbachol 10 μg/ml
# [2] = test system: guinea-pig urinary bladder muscle; conditions: isolated guinea-pig urinary bladder muscle; barium chloride 0.2 mg/ml; relative to propiverine; FIG. 2
# guinea pig taenia coli = conditions: isolated guinea pig taenia coli, barium chloride 0.2 mg/ml
smiles,measurement,setting,value
CN1CCC(OC(=O)C(OC(=O)CCC(=O)O)(c2ccccc2)c2ccccc2)CC1,neurotropic/spasmolytic activity (in words),[1],"pronounced, almost specific neurotropic/spasmolytic activity"
same,"neurotropic/spasmolytic activity, factor higher than that of propiverine","[1]; FIG. 1, relative to propiverine",50
same,"myotropic/spasmolytic activity, factor weaker",[2],14
same,myotropic/spasmolytic activity compared with propiverine (in words),guinea pig taenia coli,significantly lower myotropic/spasmolytic activity than propiverine
same,ED50 (myotropic/spasmolytic activity),"guinea pig taenia coli; Example 5, FIG. 3",94 µg/mL
